Experimental data as given in PubChem BioAssay (NCI).
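These data come from cells grown in 96-well plates and exposed to compound for 48 hours at five concentrations. TGI: total growth inhibition.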

How the values were obtained:
Assay in all cases: NCI-60 cell line screen, 48 h
HCT-116 colon = test system: HCT-116 colon
T-47D breast = test system: T-47D breast
KM12 colon = test system: KM12 colon
NCI-H226 lung = test system: NCI-H226 lung
MOLT-4 leukemia = test system: MOLT-4 leukemia
EKVX NSCLC = test system: EKVX NSCLC
OVCAR-4 ovarian = test system: OVCAR-4 ovarian
SK-MEL-2 melanoma = test system: SK-MEL-2 melanoma
NCI-H522 lung = test system: NCI-H522 lung
A498 renal = test system: A498 renal
UACC-257 melanoma = test system: UACC-257 melanoma
HCC-2998 colon = test system: HCC-2998 colon
SK-MEL-5 melanoma = test system: SK-MEL-5 melanoma
ACHN renal = test system: ACHN renal
HT29 colon = test system: HT29 colon
SW-620 colon = test system: SW-620 colon
NCI/ADR-RES ovarian = test system: NCI/ADR-RES ovarian
U251 CNS = test system: U251 CNS
NCI-H23 lung = test system: NCI-H23 lung
M14 melanoma = test system: M14 melanoma
NCI-H460 lung = test system: NCI-H460 lung
HCT-15 colon = test system: HCT-15 colon
SNB-19 CNS = test system: SNB-19 CNS
UO-31 renal = test system: UO-31 renal
COLO 205 colon = test system: COLO 205 colon
MALME-3M melanoma = test system: MALME-3M melanoma
SF-268 CNS = test system: SF-268 CNS
CCRF-CEM leukemia = test system: CCRF-CEM leukemia
LOX IMVI melanoma = test system: LOX IMVI melanoma
MCF7 breast = test system: MCF7 breast
786-0 renal = test system: 786-0 renal
TK-10 renal = test system: TK-10 renal
BT-549 breast = test system: BT-549 breast
HOP-62 NSCLC = test system: HOP-62 NSCLC
PC-3 prostate = test system: PC-3 prostate
UACC-62 melanoma = test system: UACC-62 melanoma
SK-OV-3 ovarian = test system: SK-OV-3 ovarian
OVCAR-8 ovarian = test system: OVCAR-8 ovarian
CAKI-1 renal = test system: CAKI-1 renal
HOP-92 NSCLC = test system: HOP-92 NSCLC
SK-MEL-28 melanoma = test system: SK-MEL-28 melanoma
OVCAR-5 ovarian = test system: OVCAR-5 ovarian
MDA-MB-231 breast = test system: MDA-MB-231 breast
NCI-H322M lung = test system: NCI-H322M lung
SN12C renal = test system: SN12C renal
A549 NSCLC = test system: A549 NSCLC
K-562 leukemia = test system: K-562 leukemia
SF-295 CNS = test system: SF-295 CNS
IGROV1 ovarian = test system: IGROV1 ovarian
OVCAR-3 ovarian = test system: OVCAR-3 ovarian
HS 578T breast = test system: HS 578T breast
DU-145 prostate = test system: DU-145 prostate

CN(C)CCn1c(Cn2nc3ccccc3n2)nc2cc(Cl)ccc21
TGI (HCT-116 colon): > 100 µM | TGI (T-47D breast): > 100 µM | TGI (KM12 colon): > 100 µM | TGI (NCI-H226 lung): > 100 µM | TGI (MOLT-4 leukemia): 51.7 µM | TGI (EKVX NSCLC): > 100 µM | TGI (OVCAR-4 ovarian): > 100 µM | TGI (SK-MEL-2 melanoma): > 100 µM | TGI (NCI-H522 lung): > 100 µM | TGI (A498 renal): > 100 µM | TGI (UACC-257 melanoma): > 100 µM | TGI (HCC-2998 colon): 70.5 µM | TGI (SK-MEL-5 melanoma): > 100 µM | TGI (ACHN renal): > 100 µM | TGI (HT29 colon): > 100 µM | TGI (SW-620 colon): > 100 µM | TGI (NCI/ADR-RES ovarian): > 100 µM | TGI (U251 CNS): > 100 µM | TGI (NCI-H23 lung): > 100 µM | TGI (M14 melanoma): > 100 µM | TGI (NCI-H460 lung): > 100 µM | TGI (HCT-15 colon): > 100 µM | TGI (SNB-19 CNS): > 100 µM | TGI (UO-31 renal): 34.2 µM | TGI (COLO 205 colon): > 100 µM | TGI (MALME-3M melanoma): > 100 µM | TGI (SF-268 CNS): > 100 µM | TGI (CCRF-CEM leukemia): 69.9 µM | TGI (LOX IMVI melanoma): > 100 µM | TGI (MCF7 breast): > 100 µM | TGI (786-0 renal): > 100 µM | TGI (TK-10 renal): > 100 µM | TGI (BT-549 breast): > 100 µM | TGI (HOP-62 NSCLC): > 100 µM | TGI (PC-3 prostate): > 100 µM | TGI (UACC-62 melanoma): > 100 µM | TGI (SK-OV-3 ovarian): > 100 µM | TGI (OVCAR-8 ovarian): > 100 µM | TGI (CAKI-1 renal): > 100 µM | TGI (HOP-92 NSCLC): > 100 µM | TGI (SK-MEL-28 melanoma): > 100 µM | TGI (OVCAR-5 ovarian): > 100 µM | TGI (MDA-MB-231 breast): > 100 µM | TGI (NCI-H322M lung): > 100 µM | TGI (SN12C renal): > 100 µM | TGI (A549 NSCLC): > 100 µM | TGI (K-562 leukemia): > 100 µM | TGI (SF-295 CNS): > 100 µM | TGI (IGROV1 ovarian): > 100 µM | TGI (OVCAR-3 ovarian): > 100 µM | TGI (HS 578T breast): > 100 µM | TGI (DU-145 prostate): > 100 µM
